This passage reports IC50 results from US6803371B2.

Amino acid sequences for entries named in this document (tags omitted).
UniProt P18266, whole entry: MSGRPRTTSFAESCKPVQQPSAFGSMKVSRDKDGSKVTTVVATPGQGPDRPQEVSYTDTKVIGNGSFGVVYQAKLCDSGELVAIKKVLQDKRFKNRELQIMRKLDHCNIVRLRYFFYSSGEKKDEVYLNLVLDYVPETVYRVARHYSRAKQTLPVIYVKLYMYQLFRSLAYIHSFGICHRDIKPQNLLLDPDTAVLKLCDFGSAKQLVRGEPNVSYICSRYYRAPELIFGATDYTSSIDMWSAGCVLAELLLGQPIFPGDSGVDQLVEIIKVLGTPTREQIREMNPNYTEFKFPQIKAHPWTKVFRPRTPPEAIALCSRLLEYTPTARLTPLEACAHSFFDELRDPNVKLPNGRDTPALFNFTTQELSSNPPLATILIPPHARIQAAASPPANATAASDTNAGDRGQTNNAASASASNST
UniProt P27361, whole entry: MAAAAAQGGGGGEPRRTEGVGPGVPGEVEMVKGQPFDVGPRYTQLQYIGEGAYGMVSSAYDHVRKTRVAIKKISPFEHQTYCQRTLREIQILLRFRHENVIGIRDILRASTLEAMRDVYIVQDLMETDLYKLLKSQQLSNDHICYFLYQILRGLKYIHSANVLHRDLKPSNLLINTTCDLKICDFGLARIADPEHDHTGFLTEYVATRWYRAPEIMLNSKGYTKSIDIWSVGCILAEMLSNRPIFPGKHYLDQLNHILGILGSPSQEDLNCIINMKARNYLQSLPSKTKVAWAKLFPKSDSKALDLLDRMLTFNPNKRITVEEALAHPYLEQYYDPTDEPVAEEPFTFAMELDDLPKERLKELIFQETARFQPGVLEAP
UniProt P06493, whole entry, looked up: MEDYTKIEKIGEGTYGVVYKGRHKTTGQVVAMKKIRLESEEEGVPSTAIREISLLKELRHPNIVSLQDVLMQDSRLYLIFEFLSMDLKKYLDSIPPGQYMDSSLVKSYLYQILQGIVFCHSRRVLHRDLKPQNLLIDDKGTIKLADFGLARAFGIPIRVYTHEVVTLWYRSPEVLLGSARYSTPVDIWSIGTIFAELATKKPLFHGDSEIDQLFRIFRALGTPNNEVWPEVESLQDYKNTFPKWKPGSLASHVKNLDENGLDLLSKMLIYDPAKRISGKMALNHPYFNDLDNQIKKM

Molecules are shown by their SMILES.

Experiment [1] addresses GSK-3 (Rattus norvegicus, UniProt P18266). Conditions: read-out: IC50 (additional kinases) GSK-3.
For experiment [2], the target named is erk1 (Homo sapiens, UniProt P27361). In words: erk1 kinase inhibition. Format: biochemical. Conditions: read-out: IC50 (additional kinases) erk1.
Experiment [3] deals with cdc2/cyclinB (UniProt P06493). Description: cdc2/cyclinB kinase inhibition. Format: biochemical. Conditions: read-out: IC50 cdc2/cyclinB.

In the case of `COc1ccc(CNc2nc(NCCCNC(=O)[C@H]3CSC(=O)N3)nc3c2ncn3C(C)C)cc1`, the IC50 in experiment [1] was more than 33 µM; in experiment [2] it was 8 µM; in experiment [3] it was 0.33 µM.
